# Measured values taken from ChEMBL document CHEMBL5705907 (BMC Rheumatol, 2018).
# Sequences of proteins named here, by UniProt entry; tags and fusion partners are left off. A change or cut given only in a name is not applied to a line headed by its entry.
# UniProt P52332: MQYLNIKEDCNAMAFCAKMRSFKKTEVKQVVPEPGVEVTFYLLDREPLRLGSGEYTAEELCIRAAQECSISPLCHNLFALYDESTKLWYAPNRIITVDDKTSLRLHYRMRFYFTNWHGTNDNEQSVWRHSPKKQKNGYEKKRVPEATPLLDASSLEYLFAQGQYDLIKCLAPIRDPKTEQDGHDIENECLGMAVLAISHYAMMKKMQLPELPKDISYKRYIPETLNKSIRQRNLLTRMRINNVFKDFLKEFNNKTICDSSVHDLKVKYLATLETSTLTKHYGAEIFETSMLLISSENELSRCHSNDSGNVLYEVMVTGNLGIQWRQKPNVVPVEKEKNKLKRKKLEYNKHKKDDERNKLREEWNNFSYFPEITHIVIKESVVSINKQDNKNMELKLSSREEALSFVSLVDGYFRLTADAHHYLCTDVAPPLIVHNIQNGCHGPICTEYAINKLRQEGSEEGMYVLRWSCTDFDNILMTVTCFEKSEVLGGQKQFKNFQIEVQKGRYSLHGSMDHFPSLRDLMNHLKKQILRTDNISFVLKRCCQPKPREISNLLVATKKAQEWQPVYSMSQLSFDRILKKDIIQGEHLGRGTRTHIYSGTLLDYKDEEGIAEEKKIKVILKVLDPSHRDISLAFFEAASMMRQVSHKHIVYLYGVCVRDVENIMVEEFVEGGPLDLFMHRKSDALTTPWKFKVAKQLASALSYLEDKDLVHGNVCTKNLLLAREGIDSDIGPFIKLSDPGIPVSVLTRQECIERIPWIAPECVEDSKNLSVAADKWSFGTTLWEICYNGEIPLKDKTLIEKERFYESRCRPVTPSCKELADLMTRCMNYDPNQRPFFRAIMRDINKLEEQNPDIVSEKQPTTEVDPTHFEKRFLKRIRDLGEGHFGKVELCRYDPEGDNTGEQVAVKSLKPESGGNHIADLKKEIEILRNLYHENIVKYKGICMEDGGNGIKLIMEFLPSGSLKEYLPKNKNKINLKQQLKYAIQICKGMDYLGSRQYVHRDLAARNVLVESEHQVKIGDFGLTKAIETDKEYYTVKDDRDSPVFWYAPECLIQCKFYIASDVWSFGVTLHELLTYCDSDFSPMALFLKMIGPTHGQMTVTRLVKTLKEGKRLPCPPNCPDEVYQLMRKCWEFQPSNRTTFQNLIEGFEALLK
# Biological target: Tyrosine-protein kinase JAK1 (Mus musculus, UniProt P52332)
smiles,measurement,value
CC[C@@H]1CN(C(=O)NCC(F)(F)F)C[C@@H]1c1cnc2cnc3[nH]ccc3n12 [UPADACITINIB],IC50,0.014 µM
